Patent publication US6987168

Experiments:
Assay in all cases: cell-based or functional assay
plasmin = target: plasmin
tissue kallikrein = target: tissue kallikrein
trypsin = target: trypsin

aprotinin (from UniProt P00974 36-91) showed a concentration corresponding with 50% plasmin inhibition (peptide release from resorufin-labelled casein) (plasmin) of 0.097 µM, a tissue kallikrein activity (n-benzoyl-Pro-Phe-Arg-pNA, absorbance at 410 nm); concentration giving complete inhibition (tissue kallikrein) of 0.75 µM and a concentration for 50% trypsin inhibition (peptide release from resorufin-labelled casein) (trypsin) of 0.024 µM.
